The source of these data is patent US7488745B2, “Compounds for the treatment of inflammatory disorders” (Schering Corporation, priority 2004, dated 2009).

Chains of the proteins cited; added tags and fusions are not shown. Residues count along the entry.
UniProt P78536, 215-477 S266A/N452Q limits assumed: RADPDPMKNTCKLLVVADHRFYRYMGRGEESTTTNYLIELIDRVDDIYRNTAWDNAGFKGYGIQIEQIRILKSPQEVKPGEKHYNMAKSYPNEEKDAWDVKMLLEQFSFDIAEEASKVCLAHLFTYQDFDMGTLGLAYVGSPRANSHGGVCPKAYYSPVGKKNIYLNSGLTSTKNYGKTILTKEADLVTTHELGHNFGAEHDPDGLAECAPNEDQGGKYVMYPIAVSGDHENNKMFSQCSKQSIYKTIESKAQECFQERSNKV

Structures are written as SMILES. Where only a bound is given, the exact number is not on record here.

One assay deals with purified catalytic domain of recombinant human TACE (rhTACEc) (Homo sapiens, UniProt P78536, N452Q/S266A). Put plainly: TACE kinetic assay: cleavage of internally quenched peptide substrate SPDL-3 (fluorescence). To be noted: Ki (nM), Specific TACE inhibitory activity (Ki values).
The term Ki denotes the equilibrium dissociation constant of an inhibitor or competing ligand from its target. As for `COc1ccc2c(c1)C(=O)N(C[C@@]1(c3cc4cncc(F)c4o3)NC(=O)NC1=O)C2` [Compound 9227], the inhibition constant (Ki) was 2.14 nM. As to `COc1ccc2c(c1)C(=O)N(C[C@@]1(c3ccc(-c4ccncc4)cc3)NC(=O)NC1=O)C2` [Compound 8011], the Ki worked out at 0.64 nM. Still for that read-out and setting: to `O=C1NC(=O)[C@](CN2Cc3ccc(F)cc3C2=O)(c2ccc(-c3nccs3)cc2)N1` [Compound 120] belongs 4 nM; to `O=C1NC(=O)[C@](CN2Cc3ccc(Cl)cc3C2=O)(c2ccc(-c3ccncc3)cc2)N1` [Compound 143], 1.87 nM. As to `COc1ccc2c(c1)C(=O)N(C[C@@]1(c3cnn(C(C)C)c3)NC(=O)NC1=O)C2` [Compound 9003E], the inhibition constant Ki was 2.8 nM. As for `O=C1NC(=O)[C@](CN2Cc3ccc(OCC#CC4CC4)cc3C2=O)(c2ccc(F)cc2)N1` [Compound 8009], the inhibition constant (Ki) is 0.79 nM.

The assay is the same for the next values; noted with them: Ki (nM), TABLE 6000; Ki printed as class symbols A-D.
Take `COc1ccc2c(c1)C(=O)N(C[C@@]1(c3cc4c(F)cncc4o3)NC(=O)NC1=O)C2` [Compound 9226]: the inhibition constant Ki was less than 10 nM. As to `COc1ccc2c(c1)C(=O)N(C[C@@]1(c3cc4nc(Br)ccc4o3)NC(=O)NC1=O)C2` [Compound 9274], the Ki was less than 10 nM. For the molecule `COc1ccc2c(c1)C(=O)N(C[C@@]1(c3cc4cncc(F)c4o3)NC(=O)NC1=O)C2` [Compound 9227], the inhibition constant Ki is less than 10 nM. Regarding `COc1ccc2c(c1)C(=O)N(C[C@@]1(c3cc4cc(F)cc(F)c4o3)NC(=O)NC1=O)C2` [Compound 9216], the inhibition constant Ki is less than 10 nM. Still for that read-out and setting: in the case of `COc1ccc2c(c1)C(=O)N(C[C@@]1(c3cc(-c4ccc[nH]4)no3)NC(=O)NC1=O)C2` [Compound 9251] it was less than 10 nM; in that of `CC#CCOc1ccc2c(c1)C(=O)N(C[C@@]1(c3ccc(-c4cnn(C(C)C)c4)cc3)NC(=O)NC1=O)C2` [Compound 9700], less than 10 nM. In the case of `COc1ccc2c(c1)C(=O)N(C[C@@]1(c3ccc(-c4nccnc4Cl)cc3)NC(=O)NC1=O)C2` [Compound 9913], the inhibition constant Ki is less than 10 nM. `COc1ccc2c(c1)C(=O)N(C[C@@]1(c3cnn(CC(C)C)c3)NC(=O)NC1=O)C2` [Compound 9003H]: the Ki is less than 10 nM. Same read-out and setting: in the case of `Cc1n[nH]c(C)c1-c1ccc([C@]2(CN3Cc4ccc(OC(F)F)cc4C3=O)NC(=O)NC2=O)cc1` [Compound 9512] it was less than 10 nM; in that of `COc1ccc2c(c1)C(=O)N(CC1(c3ccc(Br)cn3)NC(=O)NC1=O)C2` (stereo not drawn) [Compound 9651], less than 10 nM. The same measure, in the same setting: to `COc1ccc2c(c1)C(=O)N(C[C@@]1(c3ccc(-c4cc(C)c5nc[nH]c5c4)cc3)NC(=O)NC1=O)C2` [Compound 9731] belongs less than 10 nM. As for `COc1ccc2c(c1)C(=O)N(C[C@@]1(c3cc4ncccc4[nH]3)NC(=O)NC1=O)C2` [Compound 9231], the inhibition constant Ki was less than 10 nM. For the molecule `COc1ccc2c(c1)C(=O)N(C[C@@]1(c3ccc(OCc4ccc5ccccc5n4)cc3)NC(=O)NC1=O)C2` [Compound 9634], the Ki is less than 10 nM. For `COc1ccc2c(c1)C(=O)N(C[C@@]1(c3cc4ncc(C)cc4o3)NC(=O)NC1=O)C2` [Compound 9277], the Ki was less than 10 nM. As to `COc1ccc2c(c1)C(=O)N(CC1(c3ccccn3)NC(=O)NC1=O)C2` (stereo not drawn) [Compound 9652], the Ki was less than 10 nM. Same read-out and setting: to `COc1ccc2c(c1)C(=O)N(C[C@@]1(c3ccc(-c4cnc(OC)nc4OC)cc3)NC(=O)NC1=O)C2` [Compound 9758] belongs less than 10 nM; to `COc1ccc2c(c1)C(=O)N(C[C@@]1(c3cc4cc5ccccc5nc4o3)NC(=O)NC1=O)C2` [Compound 9934], less than 10 nM.

In the case of `COc1ccc2c(c1)C(=O)N(C[C@@]1(c3cc4cncc(C)c4o3)NC(=O)NC1=O)C2` [Compound 9228], the Ki is less than 10 nM. The same measure, in the same setting: to `COc1ccc2c(c1)C(=O)N(C[C@@]1(c3cc4nc(I)c(C)cc4o3)NC(=O)NC1=O)C2` [Compound 9278] belongs less than 10 nM.

Consider `COc1ccc2c(c1)C(=O)N(C[C@@]1(c3cc(Cl)c(O)c(Cl)c3)NC(=O)NC1=O)C2` [Compound 9601], for which the inhibition constant Ki was less than 10 nM. Same read-out and setting: to `COc1ccc2c(c1)C(=O)N(C[C@@]1(c3ccc(-c4cncc(-c5nnn(C)n5)c4)cc3)NC(=O)NC1=O)C2` [Compound 9759] belongs less than 10 nM; to `COc1ccc2c(c1)C(=O)N(C[C@@]1(c3cnn(C(C)C)c3)NC(=O)NC1=O)C2` [Compound 9003E], less than 10 nM. Same read-out and setting: in the case of `COc1ccc2c(c1)C(=O)N(C[C@@]1(c3ccc(-c4ccc5cn[nH]c5c4)cc3)NC(=O)NC1=O)C2` [Compound 9712] it was less than 10 nM; in that of `COc1ccc2c(c1)C(=O)N(C[C@@]1(c3cc4ccc(OC)cc4o3)NC(=O)NC1=O)C2` [Compound 9937], less than 10 nM; in that of `COc1ccc2c(c1)C(=O)N(C[C@@]1(c3csc(NC(C)C)n3)NC(=O)NC1=O)C2` [Compound 9204], less than 10 nM. On to `O=C1CSc2c(cccc2-c2ccc([C@]3(CN4Cc5ccc(F)cc5C4=O)NC(=O)NC3=O)cc2)N1` [Compound 9741], for which the inhibition constant Ki is less than 10 nM. Still for that read-out and setting: in the case of `CNc1nc(-c2ccc([C@]3(CN4Cc5ccc(OC)cc5C4=O)NC(=O)NC3=O)cc2)cs1` [Compound 9004C] it was less than 10 nM.

Still in this assay, the particulars now being: Ki (nM), TACE inhibitory activity, class letters.
Consider `COc1ccc2c(c1)CN(CC1(CN(C)C)NC(=O)NC1=O)C2=O` (stereo not drawn) [Compound 37], for which the Ki lay within 100 to 1000 nM.

For `O=C1NC(=O)[C@@](CN2Cc3ccc(F)cc3C2=O)(c2nc3ccccc3s2)N1` [Compound 182], the Ki was in the range of 10 to 100 nM. The same measure, in the same setting: in the case of `O=C1NC(=O)[C@](CN2Cc3ccc(F)cc3C2=O)(c2ccc(-c3nccs3)cc2)N1` [Compound 120] it was less than 10 nM; in that of `O=C1NC(=O)[C@](CN2Cc3ccc(Cl)cc3C2=O)(c2ccc(-c3ccncc3)cc2)N1` [Compound 143], less than 10 nM. In the case of `COc1ccc2c(c1)CN(CC1(C3CCN(C(=O)OC(C)(C)C)CC3)NC(=O)NC1=O)C2=O` (stereo not drawn) [Compound 277], the inhibition constant Ki lay in the range of 10 to 100 nM.

For the molecule `O=C1NC(=O)[C@](CN2Cc3ccc(F)cc3C2=O)(c2ccc(-c3cccs3)cc2)N1` [Compound 148], the Ki is less than 10 nM. On the same count and under the same terms, to `Cc1cc(COc2ccc3c(c2)C(=O)N(CC2(C)NC(=O)NC2=O)C3)c2ccccc2n1` (stereo not drawn) [Compound 193] belongs less than 10 nM; to `O=C1NC(=O)[C@](CN2Cc3ccc(Cl)cc3C2=O)(c2ccccc2)N1` [Compound 109], 10 to 100 nM; to `COc1ccc2c(c1)CN(CC1(C3CCN(S(=O)(=O)c4ccc(-c5ccon5)s4)CC3)NC(=O)NC1=O)C2=O` (stereo not drawn) [Compound 258], less than 10 nM. In the case of `COc1ccc2c(c1)CN(CC1(CN3Cc4cc(OC)ccc4C3=O)NC(=O)NC1=O)C2=O` [Compound 33], the inhibitory constant (Ki) lay within 10 to 100 nM. Still for that read-out and setting: in the case of `CC1(CN2Cc3cc(OCC(F)(F)F)ccc3C2=O)NC(=O)NC1=O` (stereo not drawn) [Compound 12] it was 10 to 100 nM; in that of `O=C1NC(=O)[C@](CN2Cc3ccc(F)cc3C2=O)(c2ccc(-c3ncccn3)cc2)N1` [Compound 161], less than 10 nM. Same read-out and setting: to `O=C1NC(=O)[C@@](CN2Cc3ccc(F)cc3C2=O)(c2ccc(-c3ccnc(Cl)c3)cc2)N1` [Compound 121] belongs greater than 1000 nM.

The same assay, now with this note: Ki Rating, TACE inhibitory activity, Table 3000.
For the molecule `O=C1NC(=O)[C@](CN2Cc3ccc(OCC4CC4)cc3C2=O)(c2ccc(-c3cnc(O)c(Cl)c3)cc2)N1` [Compound 8002], the inhibitory constant (Ki) was less than 10 nM. Same read-out and setting: to `COc1ccc2c(c1)C(=O)N(C[C@@]1(c3ccc(-n4ccc(C(F)(F)F)n4)cc3)NC(=O)NC1=O)C2` [Compound 8021] belongs less than 10 nM. On the same count and under the same terms, to `O=C1NC(=O)[C@](CN2Cc3ccc(F)cc3C2=O)(c2ccc(-c3ccc4[nH]ncc4c3)cc2)N1` [Compound 6006] belongs less than 10 nM; to `COc1ccc2c(c1)C(=O)N(C[C@@]1(c3ccc(-c4ccncc4)cc3)NC(=O)NC1=O)C2` [Compound 8011], less than 10 nM. `COc1ccc2c(c1)C(=O)N(C[C@@]1(c3ccc(-c4cnc5ccccn45)cc3)NC(=O)NC1=O)C2` [Compound 6008]: the inhibition constant (Ki) is less than 10 nM.

Take `CC#CCOc1ccc2c(c1)C(=O)N(C[C@@]1(c3ccc(-c4cnn(CC5CC5)c4)cc3)NC(=O)NC1=O)C2` [Compound 50071338095]: the Ki is less than 10 nM.

Regarding `COc1ccc2c(c1)C(=O)N(C[C@@]1(c3ccc(-c4ccnc(C)c4)cc3)NC(=O)NC1=O)C2` [Compound 8022], the inhibition constant (Ki) was less than 10 nM.

On to `O=C1NC(=O)C(CN2Cc3ccc(F)cc3C2=O)(c2ccc(F)cc2F)N1` (stereo not drawn) [Compound 4002], for which the inhibition constant Ki was less than 10 nM. Consider `O=C1NC(=O)[C@](CN2Cc3ccc(F)cc3C2=O)(c2ccc(-c3ccc4c(ccn4S(=O)(=O)c4ccccc4)c3)cc2)N1` [Compound 6002], for which the inhibitory constant (Ki) was 10 to 100 nM. Same read-out and setting: in the case of `Cc1onc(-c2ccccc2)c1COc1ccc2c(c1)CN(CC1(c3ccc(F)cc3)NC(=O)NC1=O)C2=O` (stereo not drawn) [Compound 7004] it was greater than 1000 nM. Still for that read-out and setting: in the case of `O=C1CSc2c(cccc2-c2ccc([C@@]3(CN4Cc5ccc(F)cc5C4=O)NC(=O)NC3=O)cc2)N1` [Compound 7007] it was 100 to 1000 nM. On the same count and under the same terms, to `O=C1NC(=O)C(CN2Cc3ccc(Cl)cc3C2=O)(c2cccc(F)c2)N1` (stereo not drawn) [Compound 4006] belongs 100 to 1000 nM; to `COc1ccc2c(c1)C(=O)N(C[C@@]1(c3ccc(-c4cc(C)c5nn(C)cc5c4)cc3)NC(=O)NC1=O)C2` [Compound 7019], less than 10 nM. In the case of `O=C1NC(=O)[C@@](CN2Cc3ccc(F)cc3C2=O)(c2ccc(-c3ccc4ncsc4c3)cc2)N1` [Compound 3028], the inhibition constant Ki was in the range of 100 to 1000 nM.

As for `COc1ccc2c(c1)C(=O)N(C[C@@]1(c3ccc(OC(C)C)cc3)NC(=O)NC1=O)C2` [Compound 5021], the inhibition constant Ki is less than 10 nM. Same read-out and setting: in the case of `COc1ccc2c(c1)C(=O)N(C[C@@]1(c3ccc(-c4c(N)noc4C)cc3)NC(=O)NC1=O)C2` [Compound 4023] it was less than 10 nM; in that of `CC1(CN2Cc3cc(OCC#CCO)c(Cl)cc3C2=O)NC(=O)NC1=O` (stereo not drawn) [Compound 5014], 100 to 1000 nM. Same read-out and setting: to `O=C1NC(=O)[C@](CN2Cc3ccc(OCC#CC4CC4)cc3C2=O)(c2ccc(F)cc2)N1` [Compound 8009] belongs less than 10 nM.

In the case of `Cn1cncc1-c1ccc([C@@]2(CN3Cc4ccc(F)cc4C3=O)NC(=O)NC2=O)cc1` [Compound 3000], the inhibitory constant (Ki) lay within 100 to 1000 nM. On the same count and under the same terms, to `O=C1NC(=O)[C@@](CN2Cc3ccc(F)cc3C2=O)(c2ccc(-c3ccc(-c4ccccn4)s3)cc2)N1` [Compound 3024] belongs 100 to 1000 nM; to `CCOc1ccc2c(c1)C(=O)N(C[C@@]1(c3ccc(-c4cnn(C)c4)cc3)NC(=O)NC1=O)C2` [Compound 6021], less than 10 nM; to `O=C1NC(=O)[C@](CN2Cc3ccc(F)cc3C2=O)(c2ccc(-c3ccc(F)cn3)cc2)N1` [Compound 6000], less than 10 nM. On the same count and under the same terms, in the case of `CC#CCOc1ccc2c(c1)C(=O)N(C[C@@]1(c3ccc(-c4cnn5ccccc45)cc3)NC(=O)NC1=O)C2` [Compound 6023] it was less than 10 nM.
